# Measured affinities in a library of Ab-14 heavy chain variants

Data: MIT Lincoln Laboratory AlphaSeq set, Engelhart et al. 2022, doi:10.1038/s41597-022-01779-4, as distributed in FLAb.

Target peptide (SARS-CoV-2 spike, HR2 region): PDVDLGDISGINAS

Ab-14 is the parent antibody, in scFv form: VH, then a (GGGGS)3 linker, then VL. The light chain is unchanged in all variants.
VH: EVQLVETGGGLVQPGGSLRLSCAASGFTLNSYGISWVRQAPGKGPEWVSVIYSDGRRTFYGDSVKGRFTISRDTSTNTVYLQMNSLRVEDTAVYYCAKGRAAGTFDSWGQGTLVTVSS
VL: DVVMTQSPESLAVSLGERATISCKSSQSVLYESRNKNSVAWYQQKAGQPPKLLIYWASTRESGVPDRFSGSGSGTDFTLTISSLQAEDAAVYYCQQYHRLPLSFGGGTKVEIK

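The starting antibody came from a phage panning campaign against this peptide. Variants in AAYL49 differ from the parent at up to three CDR positions; double and triple changes were sampled at random. Affinity was read by AlphaSeq, a pooled yeast mating assay with surface-displayed partners. Mating (16 h, 30 °C) was followed by selection of diploids and sequencing of their barcodes. The ratio of observed to expected reads was calibrated, replicate by replicate, on BCL2-family standards whose Kd was known from biolayer interferometry. Each pool was mated in three replicate cultures.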

Changes read parent residue, position, new residue, counted from the first residue of the VH shown.
Every variant below is changed at G55 of the VH (sequential numbering).
The Kd shown is the geometric mean over detected replicates; a lower Kd is a better binder.
A pair that was not seen in any replicate is written "nd"; this usually means weak binding, but a binder can also be missed.
Three control strains display no target. For library AAYL49, 15% of the pairings with them gave a signal, with a median of 11 µM and one signal in twenty below 680 nM, so weak values seen in few replicates may be background. For each scFv, signals with the empty controls are counted beside the result.

For G55F R100G T104V, the assay gave nd (0 of 3 replicates; controls 1 of 9).
For N30H G55C R100Y, the assay gave 30 µM (1 of 3 replicates; controls 1 of 9).
For I51F D54W G55H, the assay gave nd (0 of 3 replicates; controls 0 of 9).
For T28M G55M A102D, the assay gave nd (0 of 3 replicates; controls 1 of 9).
For Y32S G55C K65Y, the assay gave 3.3 µM (1 of 3 replicates; controls 1 of 9).
For S31M G55I F105K, the assay gave nd (0 of 3 replicates; controls 1 of 9).
For N30F S35R G55N, the assay gave nd (0 of 3 replicates; controls 1 of 9).
For L29E G55K S63W, the assay gave nd (0 of 3 replicates; controls 1 of 9).
For Y32N G55P S107P, the assay gave 66 µM (1 of 3 replicates; controls 2 of 9).
For G33Q G55C R100A, the assay gave nd (0 of 3 replicates; controls 0 of 9).
For G33D G55T V64N, the assay gave nd (0 of 3 replicates; controls 0 of 9).
For G33F I34K G55T, the assay gave 28 µM (3 of 3 replicates; controls 3 of 9).
For S35F G55Q R56H, the assay gave 27 µM (1 of 3 replicates; controls 0 of 9).
For G55D S63C V64L, the assay gave nd (0 of 3 replicates; controls 0 of 9).
For G55A R57E A101K, the assay gave nd (0 of 3 replicates; controls 0 of 9).
For Y52G G55F F59N, the assay gave nd (0 of 3 replicates; controls 0 of 9).
For S31T I51T G55T, the assay gave 53 µM (1 of 3 replicates; controls 0 of 9).
For G55R, the assay gave nd (0 of 3 replicates; controls 1 of 9).
For N30Q I51P G55Y, the assay gave 9.1 µM (1 of 3 replicates; controls 3 of 9).
For N30G G55S G99W, the assay gave nd (0 of 3 replicates; controls 2 of 9).
For G55C S63M, the assay gave 320 µM (1 of 3 replicates; controls 0 of 9).
For Y52T G55A V64L, the assay gave nd (0 of 3 replicates; controls 0 of 9).
For G33V S35T G55C, the assay gave nd (0 of 3 replicates; controls 0 of 9).
For N30T G55N G61P, the assay gave nd (0 of 3 replicates; controls 0 of 9).
For N30R G55M S107A, the assay gave nd (0 of 3 replicates; controls 0 of 9).
For N30E G55H F59C, the assay gave 1.1 µM (1 of 3 replicates; controls 1 of 9).
For G55A G61P D62S, the assay gave 12 µM (1 of 3 replicates; controls 1 of 9).
For V50W G55F, the assay gave 25 µM (1 of 3 replicates; controls 3 of 9).
For D54P G55N G99S, the assay gave 1.2 µM (1 of 3 replicates; controls 1 of 9).
For L29R G55M S63H, the assay gave nd (0 of 3 replicates; controls 0 of 9).
For G55W R56K A102H, the assay gave nd (0 of 3 replicates; controls 2 of 9).
For G55M G103K T104H, the assay gave nd (0 of 3 replicates; controls 0 of 9).
For Y32D G55E Y60Q, the assay gave nd (0 of 3 replicates; controls 2 of 9).
For S31Q G55K T104N, the assay gave nd (0 of 3 replicates; controls 1 of 9).
For F27A G55F F105M, the assay gave nd (0 of 3 replicates; controls 1 of 9).
For F27C S31P G55I, the assay gave nd (0 of 3 replicates; controls 0 of 9).
For G55W F59Y G103A, the assay gave 2.9 µM (1 of 3 replicates; controls 1 of 9).
For G26W S35H G55R, the assay gave 69 µM (1 of 3 replicates; controls 1 of 9).
For L29A G33E G55Q, the assay gave 15 µM (2 of 3 replicates; controls 3 of 9).